Source: patent publication US20060188964A1, “Processing for producing and crystallizing G-protein coupled receptors” (priority 2004, published 2006)

Biological target: T1, MBP-serotonin receptor fusion protein (MBP-5HT2c) (Rattus norvegicus, UniProt P08909)
T1 construct: possibly thioredoxin (TRX) fused at residue 402 and/or a C-terminal deca-histidine tag
T1 sequence (P08909 57-402 limits assumed): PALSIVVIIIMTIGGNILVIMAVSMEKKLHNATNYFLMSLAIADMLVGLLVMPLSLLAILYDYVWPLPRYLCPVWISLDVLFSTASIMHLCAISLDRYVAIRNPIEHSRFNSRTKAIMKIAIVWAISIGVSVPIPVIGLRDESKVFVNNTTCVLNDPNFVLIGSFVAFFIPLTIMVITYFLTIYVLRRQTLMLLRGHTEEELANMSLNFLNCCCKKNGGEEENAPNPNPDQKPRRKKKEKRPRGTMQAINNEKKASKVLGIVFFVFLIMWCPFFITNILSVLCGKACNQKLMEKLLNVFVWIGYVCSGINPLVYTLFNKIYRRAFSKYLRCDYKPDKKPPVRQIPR
Assay: Tritiated mesulergine saturation binding and Scatchard analysis on E. coli spheroplasts
Conditions: background with 10 μM serotonin, triplicate
Method: Once conditions were established for expression at a high level, the specific activity of the expressed protein was fully analyzed on an absolute scale, as for material from mammalian cells. In this case, experiments were carried out on spheroplasts (bacterial cells stripped of their outer membranes) using tritiated mesulergine (FIGS. 20A and 20B). FIGS. 20A and 20B correspond to data obtained from ligand binding to bacterial spheroplasts isolated from E. coli cells expressing the MBP-serotonin receptor fusion protein. […] The specific activity was calculated as the difference between the total activity and the activity assayed in the presence of 10 μM serotonin. Assays were performed in triplicate and what is shown is the average of these measurements.

CN1C[C@@H](NS(=O)(=O)N(C)C)C[C@@H]2c3cccc4c3c(cn4C)C[C@H]21 [mesulergine]
Kd: ~2.2 nM
